Test results taken from patent US20180127735A1.

What was measured:
fibrinogen = fibrinogen (UniProt P02671)
protein C = protein C (UniProt P04070)

## thrombin
fibrinogen
  clotting time (turbidity of fibrin clot formation): Thrombin rapidly triggered the fibrin formation within 5 minutes
Protein C
  specificity value (kcat/km) of protein C cleavage by thrombin with exogenous full-length thrombomodulin added: a specificity value of 220 mM^-1s^-1
